Sampled rows, rich in hits. Any-hit rate of the full collection: about 2.8%.
miR-122 sensor: miR-122 Renilla sensor signal increase in Huh7, primary screen, miR-122 inhibitor project, cell-based, single point, plate reader. Huh7 miR-122 Renilla luciferase sensor, 48 h; neutral wells = 0, positive control = 100. activation (reporter increase), % at 12.5 µM. 0.3% of 340,000 active;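 active = mean replicate activation score at least 90 and every replicate individually at or above 90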;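 note: higher luciferase means less miR-122 activity so hits act as miR-122 inhibitors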
PglD DTNB: C. jejuni PglD acetyltransferase inhibitors, primary screen, biochemical, DTNB colorimetric, single point | AID 602405, 2012 | inhibition, % at 12.5 µM | 0.098% of 360,000 active | UDP-N-acetylbacillosamine N-acetyltransferase PglD (Campylobacter jejuni) | purified PglD enzyme, DTNB colorimetric CoA detection; in the data active = inhibition above about 16%, passing the limit was not always enough
esBAF inh: Bmi1 luciferase reporter increase in mESCs, primary screen, esBAF inhibitor project, mouse ES cells, Bmi1 luciferase knock-in, single point | 24 h; 100% = twice the neutral-well signal | reporter increase, % at 12.5 µM | 2% of 350,000 active; in the data active = activation above about 40%;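 note: a rise in the Bmi1 reporter signal indicates esBAF inhibition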
Yeast UUG start: modulators of yeast start codon fidelity, primary screen, whole organism, S. cerevisiae, single point, plate reader; S. cerevisiae UUG-firefly luciferase reporter, luminescence/redox ratio; activity score, % at 18.7 µM; actives 0.13% (n = 350,000); AID 602363, 2012;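 active = replicate mean at a twofold rise or more, about +100% in these data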;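 also: firefly luciferase made from a UUG start codon reports start codon fidelity; reporter light over untreated wells divided by growth signal over untreated wells; some hits fall short of that in this replicate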
MITF TRPM1 HTS: activators of MITF-driven TRPM1 promoter reporter, primary screen, cell-based, SK-MEL-5, luciferase, single point. SK-MEL-5 TRPM1-promoter luciferase, 24 h; % of positive control, neutral wells = 0. activation, % at 12.5 µM. 0.75% of 300,000 active;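 active = mean activation of at least 80% with every replicate also reaching 80%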
Wnt act: Wnt/beta-catenin pathway activators, primary screen, cell-based, plate reader, single point; activation, % at 9.35 µM; 1.2% of 300,000 active; Wnt/beta-catenin reporter cell assay, activator; in the data active = activation above about 30%, passing the limit was not always enough
Numbers stand for hits; . = inactive; / = not tested or not shown; [ ] = another dose, or the depositor's remark.

SMILES	miR-122 sensor	PglD DTNB	esBAF inh	Yeast UUG start	MITF TRPM1 HTS	Wnt act
CC(=O)N1C[C@H]2[C@@H](c3ccccc31)[C@@H](CO)N2S(=O)(=O)c1ccccc1	.	.	.	.	/	/
C[C@H]1CCCCO[C@@H](CN(C)C(=O)Nc2ccccc2)[C@@H](C)CN([C@@H](C)CO)C(=O)c2cc(NC(=O)Nc3ccc4c(c3)OCO4)ccc2O1	.	.	44	.	/	/
C[C@H](CO)N1C[C@H](C)[C@@H](CN(C)C(=O)Nc2ccccc2)OCCCC[C@H](C)Oc2ccc(NC(=O)Nc3ccc4c(c3)OCO4)cc2C1=O	.	.	.	.	/	/
C[C@@H]1CN([C@@H](C)CO)C(=O)c2cc(NC(=O)Nc3ccc4c(c3)OCO4)ccc2O[C@@H](C)CCCCO[C@H]1CN(C)Cc1ccncc1	.	.	57	.	/	/
C[C@@H]1CCCCO[C@H](CN(C)Cc2ccncc2)[C@H](C)CN([C@H](C)CO)C(=O)c2cc(NC(=O)Nc3ccc4c(c3)OCO4)ccc2O1	.	.	.	.	/	/
C[C@@H]1CCCCO[C@@H](CN(C)C(=O)Nc2ccc3c(c2)OCO3)[C@@H](C)CN([C@@H](C)CO)C(=O)c2cc(NC(=O)Nc3ccccc3)ccc2O1	.	.	.	.	/	/
C[C@H](CO)N1C[C@H](C)[C@H](CN(C)C(=O)Nc2ccccc2)OCCCC[C@H](C)Oc2ccc(NC(=O)Nc3ccc4c(c3)OCO4)cc2C1=O	.	.	49	.	/	/
Cc1ccc(S(=O)(=O)Nc2ccc3c(c2)C(=O)N([C@@H](C)CO)C[C@@H](C)[C@@H](CN(C)C(=O)Nc2ccc(F)cc2)OCCCC[C@H](C)O3)cc1	.	.	.	.	/	/
Cc1ccc(S(=O)(=O)Nc2ccc3c(c2)C(=O)N([C@@H](C)CO)C[C@H](C)[C@H](CN(C)C(=O)Nc2ccc(F)cc2)OCCCC[C@@H](C)O3)cc1	94[16.7 µM]	.	.	.	/	/
Cc1ccc(-c2cnc3c(c2)C(=O)N([C@@H](C)CO)C[C@@H](C)[C@H](CN(C)CC2CCCC2)O3)cc1	.	.	.	.	/	/
O=C(CCN1CCCCC1)N[C@H]1CC[C@@H](CCNS(=O)(=O)c2ccccc2)O[C@@H]1CO	.	.	.	.	/	/
C[C@@H]1CN([C@@H](C)CO)C(=O)c2cc(NC(=O)Cc3ccccc3)ccc2O[C@H]1CN(C)C(=O)Nc1ccc2c(c1)OCO2	.	.	.	.	/	/
C[C@H]1CN([C@@H](C)CO)C(=O)c2cc(NC(=O)Cc3ccccc3)ccc2O[C@H]1CN(C)C(=O)Nc1ccc2c(c1)OCO2	.	.	71	.	/	/
COc1ccc(-c2ccc3n(c2=O)C[C@@H]2[C@@H](CO)[C@H](C(=O)N(C)C)N(CC4CCOCC4)[C@H]32)cc1	.	.	.	/	/	/
C[C@@H]1CN([C@@H](C)CO)C(=O)Cc2cc(NC(=O)C3CC3)ccc2O[C@H]1CN(C)Cc1ccc2c(c1)OCO2	.	.	.	.	/	/
O=C(CC(SCCO)c1ccc([N+](=O)[O-])cc1)c1ccco1 (centres undefined)	.	.	.	.	.	.
CC(=O)NC(CSC(CC(=O)c1ccco1)c1ccc(C)cc1)C(=O)O (centres undefined)	.	/	43	/	.	.
Cc1ccc(Sc2ncccc2O)cc1	/	/	/	/	.	69
Cc1ccc(Sc2ncccc2N)cc1	.	.	/	.	/	.
Cc1ccc(-n2c(O)c(C=NCc3ccccn3)c3ccccc3c2=O)cc1	.	.	.	.	.	61
COCC(C)NC(=O)c1ccc(N(C)C)cc1 (centres undefined)	.	.	.	.	.	.
CC(C)COC(=O)N(C)c1ccc(C(O)(C(F)(F)F)C(F)(F)F)cc1	.	.	45	.	.	.
COC(=O)N(C)c1nc2ccccc2s1	.	.	.	.	.	/
CCCCNC(=O)N(C)c1nc2ccccc2s1	.	.	64	.	.	.
O=C(Nc1ccc2c(c1)[C@H]1C[C@@H](CC(=O)N3CCc4ccccc4C3)O[C@H](CO)[C@H]1O2)NC1CCCC1	.	.	.	.	/	/

Bioassay records deposited in PubChem BioAssay by Broad Institute.
